Experimental findings from paper PMC8320619 (Current Research in Toxicology, 2020) are described below.

Chains of the proteins cited; added tags and fusions are not shown. Lines headed by an entry give the natural chain unless they say otherwise; changes in a name come on top.
UniProt O15439: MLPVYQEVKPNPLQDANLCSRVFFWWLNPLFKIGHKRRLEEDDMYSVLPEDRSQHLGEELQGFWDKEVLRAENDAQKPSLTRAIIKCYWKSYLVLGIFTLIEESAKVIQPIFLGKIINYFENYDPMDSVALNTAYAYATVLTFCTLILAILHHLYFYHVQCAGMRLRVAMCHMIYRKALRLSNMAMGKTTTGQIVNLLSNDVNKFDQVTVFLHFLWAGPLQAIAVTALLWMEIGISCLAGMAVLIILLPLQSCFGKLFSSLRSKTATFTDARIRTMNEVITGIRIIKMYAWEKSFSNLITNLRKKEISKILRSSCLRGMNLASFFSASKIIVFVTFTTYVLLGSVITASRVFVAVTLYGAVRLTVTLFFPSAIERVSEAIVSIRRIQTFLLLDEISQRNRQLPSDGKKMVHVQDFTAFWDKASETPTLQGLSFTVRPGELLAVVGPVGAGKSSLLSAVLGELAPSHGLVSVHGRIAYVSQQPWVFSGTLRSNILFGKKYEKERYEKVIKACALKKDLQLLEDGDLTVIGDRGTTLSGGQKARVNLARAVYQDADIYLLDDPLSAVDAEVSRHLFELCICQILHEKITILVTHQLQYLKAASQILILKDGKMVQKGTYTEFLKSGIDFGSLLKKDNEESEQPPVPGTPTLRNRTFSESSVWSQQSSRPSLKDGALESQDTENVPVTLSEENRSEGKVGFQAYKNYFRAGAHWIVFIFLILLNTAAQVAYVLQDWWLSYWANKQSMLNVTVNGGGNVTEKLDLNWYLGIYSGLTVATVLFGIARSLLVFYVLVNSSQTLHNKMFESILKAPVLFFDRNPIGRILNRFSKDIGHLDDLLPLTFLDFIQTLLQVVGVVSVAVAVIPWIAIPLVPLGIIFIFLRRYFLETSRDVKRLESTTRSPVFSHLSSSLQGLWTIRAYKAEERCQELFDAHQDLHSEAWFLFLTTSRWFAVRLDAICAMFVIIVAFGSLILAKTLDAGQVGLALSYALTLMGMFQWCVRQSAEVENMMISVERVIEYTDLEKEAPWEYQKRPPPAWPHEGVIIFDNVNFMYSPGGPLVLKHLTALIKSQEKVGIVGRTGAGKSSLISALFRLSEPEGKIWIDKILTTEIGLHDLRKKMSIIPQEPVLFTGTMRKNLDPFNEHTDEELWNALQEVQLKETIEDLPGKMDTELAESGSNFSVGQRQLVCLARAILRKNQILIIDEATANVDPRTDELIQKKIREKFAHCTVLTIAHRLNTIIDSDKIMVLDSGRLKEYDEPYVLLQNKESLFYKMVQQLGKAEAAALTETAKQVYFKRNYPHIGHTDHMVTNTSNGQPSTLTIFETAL

This assay concerns the target multidrug resistance associated protein 4 (MRP4) (Homo sapiens, UniProt O15439). Type of assay: biochemical.

Broadly, the IC50 is the concentration that inhibits the measured activity by half. A higher IC50 goes with weaker potency in that assay. `CN(C)C(=O)CCSC(SCCC(=O)O)c1cccc(/C=C/c2ccc3ccc(Cl)cc3n2)c1` (stereo not shown) [MK-571] displayed an IC50 of 14.2 µM.
